Among the data in ChEMBL document CHEMBL3826965, “Synthesis and in vitro reactivation study of isonicotinamide derivatives of 2-(hydroxyimino)-N-(pyridin-3-yl)acetamide as reactivators of Sarin and VX inhibited human acetylcholinesterase (hAChE)” (2016) are K values, retold here.

By UniProt entry, the sequences of proteins in these tests, tags left out. Where a name states a change or a piece, a line headed by the entry shows the natural chain unless it says otherwise.
UniProt P22303: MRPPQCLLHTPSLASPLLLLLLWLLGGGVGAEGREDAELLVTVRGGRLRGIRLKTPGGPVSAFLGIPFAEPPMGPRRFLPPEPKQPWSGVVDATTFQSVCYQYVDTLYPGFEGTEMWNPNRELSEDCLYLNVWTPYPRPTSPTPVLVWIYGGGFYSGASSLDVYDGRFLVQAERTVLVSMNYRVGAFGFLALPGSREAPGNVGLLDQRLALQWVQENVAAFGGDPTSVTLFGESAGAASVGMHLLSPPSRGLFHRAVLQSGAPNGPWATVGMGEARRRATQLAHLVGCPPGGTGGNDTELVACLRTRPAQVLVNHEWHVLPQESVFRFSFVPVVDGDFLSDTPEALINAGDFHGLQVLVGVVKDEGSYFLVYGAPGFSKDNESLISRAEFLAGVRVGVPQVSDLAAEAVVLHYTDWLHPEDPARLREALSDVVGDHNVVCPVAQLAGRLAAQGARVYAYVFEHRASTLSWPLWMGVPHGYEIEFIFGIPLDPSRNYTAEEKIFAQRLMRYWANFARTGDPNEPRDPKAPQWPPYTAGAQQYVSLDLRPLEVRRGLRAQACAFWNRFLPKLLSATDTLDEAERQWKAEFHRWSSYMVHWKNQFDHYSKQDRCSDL

Each structure is given as a SMILES string.

In assay [1] the target is Acetylcholinesterase (Homo sapiens) (UniProt P22303). As to the kind of experiment: Reactivation of VX-inhibited hemoglobin free erythrocyte ghost human AChE assessed as rate constant for cleavage of P-O bond of VX-AChE conjugate using acetylcholine iodide as substrate measured for 1 hr by spectrophotometry based Ellman method.
Assay [2] shares this target. As to the kind of experiment: Reactivation of sarin-inhibited hemoglobin free erythrocyte ghost human AChE assessed as second order rate constant using acetylcholine iodide as substrate measured for 1 hr by spectrophotometry based Ellman method.
Assay [3] shares this target. The assay can be described thus: Reactivation of VX-inhibited hemoglobin free erythrocyte ghost human AChE assessed as second order rate constant using acetylcholine iodide as substrate measured for 1 hr by spectrophotometry based Ellman method. For orientation: Ellman's reagent forms a yellow product with free thiols.
Assay [4] has the same target. As to the kind of experiment: Reactivation of sarin-inhibited hemoglobin free erythrocyte ghost human AChE assessed as rate constant for cleavage of P-O bond of sarin-AChE conjugate using acetylcholine iodide as substrate measured for 1 hr by spectrophotometry based Ellman method.

In the case of `NC(=O)c1cc[n+](CCCCC[n+]2cccc(NC(=O)/C=N\O)c2)cc1`, the K was 0.211 min⁻¹ in assay [1], 51.7 M⁻¹ s⁻¹ in assay [2], 139 M⁻¹ s⁻¹ in assay [3] and 0.207 min⁻¹ in assay [4].

On to `NC(=O)c1cc[n+](CCC[n+]2cccc(NC(=O)/C=N\O)c2)cc1`, for which the K in assay [1] was found to be 0.494 min⁻¹; in assay [2], 399 M⁻¹ s⁻¹; in assay [3], 148 M⁻¹ s⁻¹; in assay [4] it was 0.156 min⁻¹.

Turning to `NC(=O)c1cc[n+](CC[n+]2cccc(NC(=O)/C=N\O)c2)cc1`, the K in assay [1] was determined as 0.37 min⁻¹; in assay [2] it was 496 M⁻¹ s⁻¹; in assay [3], 62.7 M⁻¹ s⁻¹; in assay [4], 0.068 min⁻¹.

Regarding `C[n+]1ccccc1C=NO`, the K in assay [2] was 38.8 M⁻¹ s⁻¹.

In the case of `NC(=O)c1cc[n+](CCCC[n+]2cccc(NC(=O)/C=N\O)c2)cc1`, the K in assay [1] turned out to be 0.314 min⁻¹; in assay [2], 82.3 M⁻¹ s⁻¹; in assay [3], 424 M⁻¹ s⁻¹; in assay [4], 0.174 min⁻¹.
